By UniProt entry, the sequences of proteins in these tests, tags left out. Residues count along the entry.
UniProt P10144, 21-247 limits assumed: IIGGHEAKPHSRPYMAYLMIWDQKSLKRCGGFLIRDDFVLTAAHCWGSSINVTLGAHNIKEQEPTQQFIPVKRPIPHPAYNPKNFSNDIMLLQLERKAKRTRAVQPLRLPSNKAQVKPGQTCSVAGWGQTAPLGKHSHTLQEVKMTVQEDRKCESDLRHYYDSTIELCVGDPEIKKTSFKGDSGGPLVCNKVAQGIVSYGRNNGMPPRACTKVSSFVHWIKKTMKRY

In PMC9061857, “A fluorogenic probe for granzyme B enables in-biopsy evaluation and screening of response to anticancer immunotherapies” (Nature Communications, 2022):

What was measured:
human GzmB (hGzmB) [1] = molecular target: T1, human GzmB (hGzmB) (Homo sapiens, UniProt P10144); assay: Fluorescence assay with recombinant hGzmB (fluorogenic response, time course); assay type: biochemical; conditions: probe 25 μM, hGzmB 20 nM
recombinant human GzmB = recombinant human GzmB (Homo sapiens, UniProt P10144); assay: Kinetic measurements (Michaelis-Menten) with recombinant hGzmB; assay type: biochemical; conditions: hGzmB 20 nM, 37 °C, n = 3
human GzmB (hGzmB) [2] = molecular target: T1, human GzmB (hGzmB); assay: HPLC conversion of fluorogenic peptides by hGzmB; assay type: biochemical; conditions: TRIS buffer, 37 °C
hGzmB = assay: Limit of detection of hGzmB by probe fluorescence; conditions: limit of detection of hGzmB (Fig. S1)

Work on CCC(C)C(NC(=O)CCc1ccc2n1[B-](F)(F)[N+]1=C(C)C=C(C)C1=C2)C(=O)NC(CCC(=O)O)C(=O)N1CCCC1C(=O)NC(CC(=O)O)C(=O)NCCNC(=O)c1ccc(N=Nc2ccc(N(C)C)cc2)cc1 (stereo not shown) yielded a S/N ratios (human GzmB (hGzmB) [1]; Data 1) of 3, a S/N ratios (human GzmB (hGzmB) [1]; Data 2) of 3 and a S/N ratios (human GzmB (hGzmB) [1]; Data 3) of 3. For the same compound, the Kcat (recombinant human GzmB) was 2.3 s⁻¹, the Km (recombinant human GzmB) was 30.8 µM and the HPLC conversion rate (human GzmB (hGzmB) [2]; 2h-20 nM hGzmB, Data 1) was 2%. For the same compound, the HPLC conversion rate (human GzmB (hGzmB) [2]; 2h-20 nM hGzmB, Data 2) was 1%, the HPLC conversion rate (human GzmB (hGzmB) [2]; 2h-20 nM hGzmB, Data 3) was 1% and the HPLC conversion rate (human GzmB (hGzmB) [2]; 2h-50 nM hGzmB, Data 1) was 3.5%. It also gave an HPLC conversion rate (human GzmB (hGzmB) [2]; 2h-50 nM hGzmB, Data 2) of 2.5%, an HPLC conversion rate (human GzmB (hGzmB) [2]; 2h-50 nM hGzmB, Data 3) of 3% and an HPLC conversion rate (human GzmB (hGzmB) [2]; 2h-100 nM hGzmB, Data 1) of 7%. The HPLC conversion rate (human GzmB (hGzmB) [2]; 2h-100 nM hGzmB, Data 2) was 4%, the HPLC conversion rate (human GzmB (hGzmB) [2]; 2h-100 nM hGzmB, Data 3) was 5.5% and the HPLC conversion rate (human GzmB (hGzmB) [2]; 6h-20 nM hGzmB, Data 1) was 2%. The HPLC conversion rate (human GzmB (hGzmB) [2]; 6h-20 nM hGzmB, Data 2) was 1.5%, the HPLC conversion rate (human GzmB (hGzmB) [2]; 6h-20 nM hGzmB, Data 3) was 1.5% and the HPLC conversion rate (human GzmB (hGzmB) [2]; 6h-50 nM hGzmB, Data 1) was 4.5%. It also gave an HPLC conversion rate (human GzmB (hGzmB) [2]; 6h-50 nM hGzmB, Data 2) of 3%, an HPLC conversion rate (human GzmB (hGzmB) [2]; 6h-50 nM hGzmB, Data 3) of 3.5% and an HPLC conversion rate (human GzmB (hGzmB) [2]; 6h-100 nM hGzmB, Data 1) of 12.5%. The HPLC conversion rate (human GzmB (hGzmB) [2]; 6h-100 nM hGzmB, Data 2) was 6%, the HPLC conversion rate (human GzmB (hGzmB) [2]; 6h-100 nM hGzmB, Data 3) was 10.5% and the HPLC conversion rate (human GzmB (hGzmB) [2]; 24h-20 nM hGzmB, Data 1) was 3.5%. The HPLC conversion rate (human GzmB (hGzmB) [2]; 24h-20 nM hGzmB, Data 2) was 3%, the HPLC conversion rate (human GzmB (hGzmB) [2]; 24h-20 nM hGzmB, Data 3) was 3.5% and the HPLC conversion rate (human GzmB (hGzmB) [2]; 24h-50 nM hGzmB, Data 1) was 7%. For the same compound, the HPLC conversion rate (human GzmB (hGzmB) [2]; 24h-50 nM hGzmB, Data 2) was 5%, the HPLC conversion rate (human GzmB (hGzmB) [2]; 24h-50 nM hGzmB, Data 3) was 6% and the HPLC conversion rate (human GzmB (hGzmB) [2]; 24h-100 nM hGzmB, Data 1) was 20%. For the same compound, the HPLC conversion rate (human GzmB (hGzmB) [2]; 24h-100 nM hGzmB, Data 2) was 12%, the HPLC conversion rate (human GzmB (hGzmB) [2]; 24h-100 nM hGzmB, Data 3) was 17% and the “HPLC conversion (100 nM hGzmB, 24 h)” value (human GzmB (hGzmB) [2]; probe 25 μM (Ac-IEPD-AMC 50 μM), HPLC-UV) was 14%. It also gave a LoD (hGzmB) of 17 nM.
